Source: PubChem
Yeast UUG start: alters start codon recognition fidelity in yeast; AID 602363; activity score, % at 18.7 µM; 350,000 tested, 0.13% active; S. cerevisiae UUG-firefly luciferase reporter, luminescence/redox ratio;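 active means replicate mean at a twofold rise or more, about +100% in these data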;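 further: firefly luciferase made from a UUG start codon reports start codon fidelity; reporter light over untreated wells divided by growth signal over untreated wells; some hits fall short of that in this replicate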
miR122 inh: blocks miR-122 activity in Huh7 sensor cells. Huh7 miR-122 Renilla luciferase sensor, 48 h; neutral wells = 0, positive control = 100. activation (reporter increase), % at 12.5 µM. actives 0.3% (n = 340,000). AID 602342;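 active = mean replicate activation score at least 90 and every replicate individually at or above 90; inconclusive = only one of the two criteria met; inactive = neither criterion met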;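 note: higher luciferase means less miR-122 activity so hits act as miR-122 inhibitors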
MITF TRPM1 HTS: activators of MITF-driven TRPM1 promoter activity in SK-MEL-5 cells; SK-MEL-5 TRPM1-promoter luciferase, 24 h; % of positive control, neutral wells = 0; activation, % at 12.5 µM; actives 0.75% (n = 300,000); AID 588334;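 active = mean activation of at least 80% with every replicate also reaching 80%; inconclusive = mean reaches 80% but some replicate falls short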
Wnt act: activates Wnt/beta-catenin signaling in a reporter cell assay | actives 1.2% (n = 300,000) | activator, plate reader | activation, % at 9.35 µM; in the data active = activation above about 30%, passing the limit was not always enough; inconclusive = no clear call, values can overlap the other calls
PglD inh: inhibitors of Campylobacter jejuni PglD acetyltransferase; purified PglD enzyme, DTNB colorimetric CoA detection; inhibition, % at 12.5 µM; actives 0.098% (n = 360,000); AID 602405; in the data active = inhibition above about 16%, passing the limit was not always enough; inconclusive = no clear call, values can overlap the other calls
esBAF inh: SWI/SNF esBAF complex inhibition; mouse ES cells, Bmi1-luciferase knock-in reporter, 24 h; 100% = twice the neutral-well signal; reporter increase, % at 12.5 µM; actives 2% (n = 350,000); AID 602393; in the data active = activation above about 40%; inconclusive = no clear call, values can overlap the other calls;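 note: a rise in the Bmi1 reporter signal indicates esBAF inhibition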
Numbers stand for hits; . = inactive; ? = inconclusive; / = no result given. The list is not random: actives were taken first. Their share in the collection is about 2.8%.

SMILES	Yeast UUG start	miR122 inh	MITF TRPM1 HTS	Wnt act	PglD inh	esBAF inh
C[C@@H]1CCCCO[C@@H](CN(C)S(=O)(=O)c2ccc(Cl)cc2)[C@@H](C)CN([C@@H](C)CO)C(=O)c2cc(NS(=O)(=O)c3cccs3)ccc2O1	.	.	/	/	.	.
C[C@H](CO)N1C[C@H](C)[C@@H](CN(C)C(=O)NC2CCCCC2)Oc2c(NC(=O)c3ccc(-c4nccs4)cc3)cccc2C1=O	.	.	/	/	.	.
CCOC(=O)C1CCN(CCC(=O)Nc2ccc(C)c(C)c2)CC1	/	.	.	46	/	/
CCOC(=O)C1CCCN(CCC(=O)Nc2ccc(C)c(C)c2)C1 (stereo unspecified)	.	.	.	.	.	.
FC(F)(F)c1nnc2c(Sc3ccccc3)nc3ccccc3n12	/	/	/	.	/	/
FC(F)(F)c1nnc2c(Sc3ccccn3)nc3ccccc3n12	.	.	.	.	.	63
Cc1cccc(N=c2oc3cc(O)ccc3cc2C(N)=O)c1	.	.	.	40	.	58
COc1ccccc1N=c1oc2cc(O)ccc2cc1C(N)=O	.	.	.	.	.	.
CC(C)(C)c1ccc(C(=O)N2CCCC2)s1	.	/	.	.	.	47
COCn1c(COc2ccc3ccccc3c2)nc2ccccc21	.	.	?	/	.	79
COc1ccc(NC(=O)Nc2ccc3c(c2)[C@@H]2C[C@H](CC(=O)N(C)C)O[C@@H](CO)[C@@H]2O3)cc1	.	.	/	/	.	.
Cc1cc(C)nc(Nc2n[nH]c(-c3ccccc3C)n2)n1	/	/	.	.	/	/
Cc1cc(C)nc(Nc2n[nH]c(-c3ccc(C(C)(C)C)cc3)n2)n1	.	.	.	.	.	55
Cc1cc(C)nc(Nc2n[nH]c(-c3ccccc3Br)n2)n1	.	.	/	/	.	44
Cc1cc(C)nc(Nc2n[nH]c(C)n2)n1	/	/	.	.	/	/
Cc1cc(C)nc(Nc2n[nH]c(-c3ccc(N)cc3)n2)n1	.	.	/	47	.	.
Cc1ccc(S(=O)(=O)Nc2cccc3c2O[C@H](CN(C)S(C)(=O)=O)[C@H](C)CN([C@H](C)CO)C3=O)cc1	.	.	/	/	.	.
O=C(COC(=O)c1cccc(F)c1)Nc1ccc2c(c1)OCCO2	.	/	.	32	.	.
N#CCC(=O)Nc1ccc(C(=O)OCC(=O)NCc2ccc3c(c2)OCO3)cc1	/	/	.	.	/	.
CC(C)NC(=O)COC(=O)c1ccc(NS(=O)(=O)c2ccc3c(c2)OCCO3)cc1	.	280	/	/	.	.
O=C(COC(=O)c1ccccc1F)Nc1ccc2c(c1)OCCO2	.	.	.	41	.	.
Cc1cccc(C(=O)OCC(=O)Nc2ccc3c(c2)OCCO3)c1	.	.	.	.	.	.
N#CCC(=O)Nc1ccc(C(=O)OCC(=O)NC(=O)Nc2ccc3c(c2)OCCO3)cc1	.	.	.	.	.	61
CC(C)NC(=O)N[C@@H]1CC[C@H](CC(=O)N2CCCCC2)O[C@H]1CO	.	.	/	/	.	.
CC(=O)NC[C@H]1[C@@H](c2ccc(-c3cccc(F)c3)cc2)[C@@H](CO)N1C(C)=O	.	.	/	/	.	.
SMILES	Yeast UUG start	miR122 inh	MITF TRPM1 HTS	Wnt act	PglD inh	esBAF inh
CN(CC(=O)Nc1ccc(F)cc1)C(=O)COC(=O)c1ccccc1	.	.	.	.	.	.
CN(CC(=O)Nc1ccc(F)cc1)C(=O)COC(=O)c1cccc(N(C)C)c1	.	.	/	41	.	48
Cc1nn(C)cc1NC(=O)C[C@@H]1CC[C@@H]2[C@H](COc3ccc(NC(=O)C4CCC4)cc3C(=O)N2C)O1	.	.	/	/	.	.
C=CCSc1nc(N)c2c(C)c(C)sc2n1	.	.	/	.	.	46
CCSc1nc(N)c2c(C)c(C)sc2n1	/	/	.	.	/	/
Cc1c(C(=O)OCC(=O)NCC2CCCO2)cccc1[N+](=O)[O-] (stereo unspecified)	/	.	.	37	/	.
COc1cccc(-c2ccc3n(c2=O)C[C@H]2[C@H](CO)[C@@H](C(=O)NCC4CC4)N(C(C)=O)[C@@H]32)c1	/	/	/	/	.	.
Cc1ccc(C(=O)N/N=C/c2ccoc2)cc1C	.	.	.	.	.	50
COc1ccc(C(=O)N/N=C\c2ccoc2)cc1	.	/	.	.	.	/
COc1ccccc1CNC(=O)COC(=O)Cn1cnc2c1c(=O)n(C)c(=O)n2C	.	.	/	.	.	.
Cn1c(=O)c2c(ncn2CC(=O)OCC(=O)NCc2ccccc2Cl)n(C)c1=O	.	/	.	36	.	/
CCC(=O)NCCc1nc2cc(NC(=O)c3ccc(F)cc3)ccc2n1C	.	.	93	.	.	.
CCC(=O)NCCc1nc2cc(NC(=O)c3ccc(OC)cc3)ccc2n1C	.	.	.	/	.	?
CCC(=O)NCCc1nc2cc(NC(=O)c3ccc(Cl)cc3)ccc2n1C	.	.	123	37	.	.
C[C@@H]1CN([C@@H](C)CO)C(=O)c2cc(NC(=O)CCC(F)(F)F)ccc2O[C@H]1CN(C)S(=O)(=O)c1ccc(F)cc1	.	.	/	/	.	.
CNC(=O)CSc1nc2nn(-c3ccccc3)c(=O)c-2c2n1CCCCC2	.	.	.	.	.	.
CC(C)CNC(=O)CSc1nc2nn(-c3ccccc3)c(=O)c-2c2n1CCCCC2	/	/	.	40	/	/
CC=Cc1ccc2n(c1=O)C[C@H]1[C@H](CO)[C@@H](C(=O)NCCOC)[C@@H]2N1Cc1nccs1 (mixture of isomers)	/	/	/	/	.	.
CC=Cc1ccc2n(c1=O)C[C@@H]1[C@@H](CO)[C@H](C(=O)NCCOC)[C@H]2N1Cc1nccs1 (mixture of isomers)	/	/	/	/	19	.
Cc1ccc2c(C)c(C(=O)N3CCN(Cc4ccc5c(c4)OCO5)CC3)oc2c1C	.	.	.	.	.	79
CN(C)c1ccc(-c2nnc(-c3cccs3)o2)cc1	/	/	.	?	/	/
Brc1ccc(-c2cnc(-c3cccs3)o2)cc1	.	.	/	/	.	67
CC(C)c1nc(-c2ccc([N+](=O)[O-])cc2)cs1	.	.	.	/	.	55
COc1cccc(NC(=O)N(C)C[C@@H]2Oc3ncc(/C=C/c4ccccc4)cc3C(=O)N([C@@H](C)CO)C[C@@H]2C)c1	.	.	/	/	.	.
O=c1[nH]c(SCCOc2ccccc2F)nc2ccccc12	/	/	.	.	/	/
SMILES	Yeast UUG start	miR122 inh	MITF TRPM1 HTS	Wnt act	PglD inh	esBAF inh
COc1ccccc1OCCSc1nc2ccccc2c(=O)[nH]1	.	.	.	44	.	64
Cc1cc(C(=O)COc2cccc([N+](=O)[O-])c2)c(C)n1C1CC1	.	.	105	.	.	71
Cc1ccc(OCC(=O)Nc2sc3c(c2C#N)CCC3)cc1	.	.	111	.	.	.
CCOC(=O)Nc1sc2c(c1C#N)CCCC2	.	/	91	/	.	.
CCC(=O)Nc1sc2c(c1C#N)CCC2	/	/	.	.	/	/
COCCNC(=O)c1cc(-c2ccc(OC)c(OC)c2)on1	.	.	.	/	.	.
O=C(c1cc(-c2cccc(Cl)c2)on1)N1CCOCC1	.	/	101	.	.	44
O=C(c1cc(-c2ccc(Cl)c(Cl)c2)on1)N1CCOCC1	.	.	90	.	.	42
